Structures are written as SMILES. The list shows a part of the results, in another mix than the full data.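 Single-dose data. Exposure time 48 hours. Values below 10 considered active.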 Active and inactive are the calls of the source.

Test in all cases: NCI-60 one-dose screen, 48 h (100 = growth as untreated, 0 = no growth, -100 = all killed)
Holding throughout (details): 10 µM

The test system of assay [1] is NCI-H23 lung.
For assay [2], the system named is NCI-H226 lung.
The test system of assay [3] is NCI-H322M lung.
Assay [4] relates to HOP-62 NSCLC.
For assay [5], the system named is NCI-H460 lung.
In assay [6] the test system is NCI-H522 lung.
Assay [7] has as its system A549/ATCC NSCLC.
Assay [8] concerns 786-0 renal.
In assay [9] the test system is COLO 205 colon.
The test system of assay [10] is DU-145 prostate.
The subject of assay [11] is K-562 leukemia.
Assay [12] deals with MALME-3M melanoma.
The subject of assay [13] is MDA-MB-231 breast.
Assay [14] has as its system RXF 393 renal.
In assay [15] the test system is SF-268 CNS.
For assay [16], the system named is SF-295 CNS.
Assay [17] relates to SF-539 CNS.
Assay [18] relates to UACC-257 melanoma.
Assay [19] has as its system M14 melanoma.
Assay [20] concerns HOP-92 NSCLC.

As for `BrCCN(CCBr)c1ccc2c(c1)Cc1ccccc1-2`, the growth in assay [1] is inactive: 12%; in assay [2], inactive: 43.7%; in assay [3], inactive: 82.6%; in assay [4], inactive: 43%; in [5], active: 4.31%; in assay [6] it was inactive: 32.1%. Further, the growth in assay [7] was inactive: 32.5%; in assay [8] it was inactive: 10%; in assay [9] it was inactive: 78.7%; in assay [10], active: 1.16%; in [11], inactive: 38.3%; in assay [12] it was inactive: 45%. The growth in [13] was inactive: 78.1%; in [14] it was inactive: 30.9%; in [15], inactive: 18.7%; in [16] it was active: 8.74%; in [17] it was inactive: 16.3%; in assay [18], inactive: 67.9%. In addition, in assay [19], the growth was inactive: 18.8%.

In the case of `Cn1c(=O)[nH]cc(N(CCCl)CCCl)c1=O`, the growth in assay [1] is inactive: 81.4%; in [3] it was inactive: 128%; in assay [4] it was inactive: 103%; in assay [5] it was inactive: 34.2%; in assay [6] it was inactive: 91.2%; in assay [7], inactive: 73.4%. The growth was inactive: 94.5% in assay [8]; inactive: 101% in [9]; inactive: 97.2% in assay [10]; inactive: 86.7% in [11]; inactive: 130% in assay [12]; inactive: 85.7% in assay [13]. For the same compound, the growth in [14] is inactive: 100%; in assay [15] it was inactive: 71.9%; in assay [16] it was inactive: 96.1%; in assay [17], inactive: 80.3%; in assay [18], inactive: 90.6%; in assay [19], inactive: 101%.

For `Cc1cc(O)c(CN(CC(C)Cl)CC(C)Cl)cc1C` (configuration not stated), the growth is inactive: 105% in assay [1]; inactive: 107% in [2]; inactive: 100% in assay [3]; inactive: 86.2% in assay [4]; inactive: 111% in assay [5]; inactive: 93.8% in assay [6]. In addition, the growth was inactive: 111% in assay [7]; inactive: 105% in assay [8]; inactive: 119% in assay [9]; inactive: 113% in [10]; inactive: 101% in [12]; inactive: 110% in assay [13]. Moreover, the growth in assay [14] is inactive: 122%; in assay [15] it was inactive: 100%; in assay [16] it was inactive: 100%; in [17], inactive: 97.2%; in assay [18], inactive: 108%; in assay [19], inactive: 102%.

Consider `C[N+](C)(CCCl)CCCl`, for which the growth in assay [1] is inactive: 118%; in assay [2], inactive: 104%; in [3], inactive: 110%; in assay [4], inactive: 107%; in assay [5], inactive: 106%; in [7], inactive: 97.3%. Moreover, the growth is inactive: 108% in assay [8]; inactive: 116% in [9]; inactive: 106% in [10]; inactive: 110% in assay [11]; inactive: 117% in assay [12]; inactive: 104% in assay [13]. Further, the growth in assay [14] is inactive: 115%; in assay [15], inactive: 104%; in assay [16], inactive: 150%; in assay [17], inactive: 97.2%; in assay [18], inactive: 92%; in [19], inactive: 108%.

`O=CC(O)C(O)C(O)C(O)CN(CCCl)CCCl` (configuration not stated): the growth in assay [1] was inactive: 101%; in assay [2], inactive: 101%; in assay [3], inactive: 102%; in assay [4], inactive: 106%; in assay [5] it was inactive: 104%; in assay [6] it was inactive: 86.2%. For the same compound, the growth in assay [7] was inactive: 99.7%; in assay [8] it was inactive: 102%; in assay [9] it was inactive: 99%; in assay [10], inactive: 110%; in [11], inactive: 104%; in assay [12], inactive: 95.7%. Besides, the growth in [13] is inactive: 108%; in assay [14], inactive: 102%; in assay [15], inactive: 100%; in assay [16], inactive: 101%; in assay [17], inactive: 92.2%; in [18], inactive: 93.7%. For the same compound, in [19], the growth is inactive: 98.9%.

With `ClCCSC(SCCCl)=C(SCCCl)SCCCl`, the growth was inactive: 54.9% in [1]; inactive: 82.7% in assay [2]; inactive: 92.2% in assay [3]; inactive: 72.3% in assay [4]; inactive: 31% in assay [5]; inactive: 85.4% in assay [20]. The growth in assay [6] was inactive: 110%; in assay [7], inactive: 72.1%; in assay [8], inactive: 77.1%; in assay [9], inactive: 87.9%; in assay [10] it was inactive: 72.3%; in assay [11], inactive: 94.2%. The growth in [12] was inactive: 87.2%; in assay [14], inactive: 93.5%; in assay [16], inactive: 65.8%; in [17], inactive: 69.9%; in [18], inactive: 105%; in assay [19] it was inactive: 82.1%.

As for `CC(C)(C)C(=O)CBr`, the growth was inactive: 107% in [1]; inactive: 93.7% in assay [2]; inactive: 101% in [3]; inactive: 104% in assay [4]; inactive: 110% in assay [5]; inactive: 106% in assay [7]. The growth in assay [8] is inactive: 93.6%; in [9] it was inactive: 112%; in assay [10], inactive: 106%; in [11], inactive: 96.7%; in assay [12] it was inactive: 101%; in assay [13], inactive: 104%. In addition, the growth in assay [14] is inactive: 104%; in assay [15] it was inactive: 100%; in assay [16] it was inactive: 102%; in assay [17], inactive: 101%; in assay [18] it was inactive: 104%; in assay [19] it was inactive: 99.3%.

Take `N#CC1(Nc2ccccc2)CCN(Cc2ccccc2)CC1`: the growth in [1] is inactive: 91.3%; in assay [2] it was inactive: 100%; in assay [3], inactive: 307%; in assay [4] it was inactive: 84.4%; in [5], inactive: 101%; in assay [20] it was inactive: 85.8%. In addition, the growth was inactive: 84.2% in [6]; inactive: 87.7% in assay [7]; inactive: 69.5% in [8]; inactive: 109% in assay [10]; inactive: 162% in assay [11]; inactive: 228% in assay [12]. Moreover, the growth in [13] is inactive: 99%; in assay [14], inactive: 100%; in assay [15], inactive: 99.5%; in [16], inactive: 92.7%; in [17], inactive: 93.9%; in [18] it was inactive: 106%. The growth in assay [19] was inactive: 92.3%.
